Results taken from patent US10112937B2, “P2X7 modulators and methods of use” (Janssen Pharmaceutica NV, priority 2013, dated 2018).

Protein sequences, listed by entry. Tags and fused reporters are not part of them. Lines headed by an entry give the natural chain unless they say otherwise; changes in a name come on top.
UniProt Q99572: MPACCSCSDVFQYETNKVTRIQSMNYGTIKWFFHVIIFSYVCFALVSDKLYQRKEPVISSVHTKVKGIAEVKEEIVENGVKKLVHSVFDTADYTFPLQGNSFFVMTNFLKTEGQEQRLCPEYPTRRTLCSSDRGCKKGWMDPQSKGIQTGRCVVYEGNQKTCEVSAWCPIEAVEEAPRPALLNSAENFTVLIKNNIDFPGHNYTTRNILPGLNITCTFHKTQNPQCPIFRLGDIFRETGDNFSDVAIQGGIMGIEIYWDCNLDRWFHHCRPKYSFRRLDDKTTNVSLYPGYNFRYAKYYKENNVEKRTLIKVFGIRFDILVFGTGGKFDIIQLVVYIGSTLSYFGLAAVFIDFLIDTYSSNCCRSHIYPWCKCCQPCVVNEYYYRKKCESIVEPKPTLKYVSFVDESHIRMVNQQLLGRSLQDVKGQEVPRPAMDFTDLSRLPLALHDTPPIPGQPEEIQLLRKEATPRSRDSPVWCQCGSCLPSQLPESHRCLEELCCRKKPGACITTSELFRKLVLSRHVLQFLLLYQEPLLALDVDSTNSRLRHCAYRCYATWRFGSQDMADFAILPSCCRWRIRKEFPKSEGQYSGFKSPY
UniProt Q64663: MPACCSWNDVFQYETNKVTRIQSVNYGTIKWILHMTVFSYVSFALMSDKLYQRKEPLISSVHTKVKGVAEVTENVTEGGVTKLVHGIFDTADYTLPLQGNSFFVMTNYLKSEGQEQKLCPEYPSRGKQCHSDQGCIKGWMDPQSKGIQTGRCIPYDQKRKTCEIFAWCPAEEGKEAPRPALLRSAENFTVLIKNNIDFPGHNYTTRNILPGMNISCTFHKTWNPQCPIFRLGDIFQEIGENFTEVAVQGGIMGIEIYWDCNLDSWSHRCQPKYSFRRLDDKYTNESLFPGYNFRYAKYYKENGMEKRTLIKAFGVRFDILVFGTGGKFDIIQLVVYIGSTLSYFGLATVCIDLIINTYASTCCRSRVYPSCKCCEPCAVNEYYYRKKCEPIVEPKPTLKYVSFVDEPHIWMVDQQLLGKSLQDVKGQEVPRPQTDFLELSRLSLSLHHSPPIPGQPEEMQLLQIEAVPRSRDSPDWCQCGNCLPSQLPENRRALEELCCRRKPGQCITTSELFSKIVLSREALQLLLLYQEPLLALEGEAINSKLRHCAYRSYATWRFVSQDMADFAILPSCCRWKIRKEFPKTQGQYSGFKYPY

Columns and labels:
human P2X7 [1] = molecular target: T1, human P2X7 (Homo sapiens (Human), UniProt Q99572); assay: Ca2+ flux (FLIPR) in 1321N1 cells expressing recombinant human P2X7; format: cell-based;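 note: cells loaded with Calcium-4 dye, preincubated with test compound for 30 min, fluorescence change read 180 s after agonist addition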
human P2X7 [2] = molecular target: T1, human P2X7; assay: Radioligand binding ([3H]A-804598), human P2X7-1321N1 cell membranes
rat P2X7 = rat P2X7 (Rattus norvegicus (Rat), UniProt Q64663); assay: Ca2+ flux (FLIPR) in 1321N1 cells expressing recombinant rat P2X7; format: cell-based;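 note: Calcium-4 dye fluorescence change read 180 s after agonist addition, with cells preincubated 30 min with compound and dye in 96-well plates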
[3] = 1321N1 cells, recombinant human P2X7, 250 μM BzATP
[4] = human P2X7-1321N1 membranes, tritiated A-804598
[5] = tracer tritiated A-804598, 1 hour at 4° C.
[6] = 1321N1 cells, recombinant rat P2X7, 250 μM BzATP
[7] = Ca2+ flux, 250 μM BzATP, rat P2X7 1321N1 cells

Row | Structure (SMILES) | pIC50 (human P2X7 [1]; [3]) | pIC50 (rat P2X7; [6]) | further results
1 | C[C@@H]1c2ncn(-c3ccc(F)cc3)c2CCN1C(=O)c1cccc(C(F)(F)F)c1Cl (single isomer, unassigned) [Example 46, (4R*)-5-{[2-Chloro-3-(trifluoromethyl)phenyl]carbonyl}-1-(4-fluorophenyl)-4-methyl-4,5,6,7-tetrahydro-1H-imidazo[4,5-c]pyridine] | 7.18 |  | 
2 | CC1c2nnn(-c3ncccn3)c2CCN1C(=O)c1cccc(C(F)(F)F)c1Cl (single isomer, unassigned) [Example 88, (4R*)-5-{[2-Chloro-3-(trifluoromethyl)phenyl]carbonyl}-4-methyl-1-pyrimidin-2-yl-4,5,6,7-tetrahydro-1H-[1,2,3]triazolo[4,5-c]pyridine] |  |  | pKi (human P2X7 [2]; [4]): 7.90; pKi (human P2X7 [2]; [5]): 7.90
3 | Cc1ccnc(-n2nnc3c2CCN(C(=O)c2cccc(C(F)(F)F)c2Cl)[C@@H]3C)c1 (single isomer, unassigned) [Example 185, (R*)-(2-chloro-3-(trifluoromethyl)phenyl)(4-methyl-1-(4-methylpyridin-2-yl)-6,7-dihydro-1H-[1,2,3]triazolo[4,5-c]pyridin-5(4H)-yl)methanone] |  | 7.40 | 
4 | Cc1ccnc(-n2nnc3c2CCN(C(=O)c2cccc(C(F)(F)F)c2Cl)[C@H]3C)c1 (single isomer, unassigned) [Example 186, (S*)-(2-chloro-3-(trifluoromethyl)phenyl)(4-methyl-1-(4-methylpyridin-2-yl)-6,7-dihydro-1H-[1,2,3]triazolo[4,5-c]pyridin-5(4H)-yl)methanone] |  | < 5.00 | 
5 | C[C@@H]1c2ncn(-c3ccccn3)c2CCN1C(=O)c1cccc(Cl)c1Cl (single isomer, unassigned) [Example 192, (R*)-(2,3-Dichlorophenyl)(4-methyl-1-(pyridin-2-yl)-6,7-dihydro-1H-imidazo[4,5-c]pyridin-5(4H)-yl)methanone] | 5.49 |  | 
6 | C[C@@H]1Cc2c(nnn2-c2ccn[nH]2)CN1C(=O)c1cccc(C(F)(F)F)c1Cl (single isomer, unassigned) [Example 350, (R*)-(2-chloro-3-(trifluoromethyl)phenyl)(6-methyl-1-(1H-pyrazol-5-yl)-6,7-dihydro-1H-[1,2,3]triazolo[4,5-c]pyridin-5(4H)-yl)methanone] | 5.16 |  | 
7 | C[C@H]1Cc2c(nnn2-c2ccn[nH]2)CN1C(=O)c1cccc(C(F)(F)F)c1Cl (single isomer, unassigned) [Example 351, (S*)-(2-chloro-3-(trifluoromethyl)phenyl)(6-methyl-1-(1H-pyrazol-5-yl)-6,7-dihydro-1H-[1,2,3]triazolo[4,5-c]pyridin-5(4H)-yl)methanone] | 8.92 |  | pKi (human P2X7 [2]; [4]): 8.00
8 | Cc1ccnc(-n2nnc3c2CCN(C(=O)c2cccc(OC(F)(F)F)c2)C3C)c1 (single isomer, unassigned) [Example 377, (S*)-(4-methyl-1-(4-methylpyridin-2-yl)-6,7-dihydro-1H-[1,2,3]triazolo[4,5-c]pyridin-5(4H)-yl)(3-(trifluoromethoxy)phenyl)methanone] |  | 4.81 | 
9 | Cc1cccc(-n2nnc3c2CCN(C(=O)c2cccc(C(F)(F)F)c2F)[C@H]3C)n1 (single isomer, unassigned) [Example 387, (S*)-(2-fluoro-3-(trifluoromethyl)phenyl)(4-methyl-1-(6-methylpyridin-2-yl)-6,7-dihydro-1H-[1,2,3]triazolo[4,5-c]pyridin-5(4H)-yl)methanone] |  |  | pKi (human P2X7 [2]; [4]): 7.05
10 | O=C(c1cccc(Cl)c1Cl)N1CCc2c(ncn2-c2ccccc2)C1 [Example 3, (2,3-Dichlorophenyl)(1-phenyl-6,7-dihydro-1H-imidazo[4,5-c]pyridin-5(4H)-yl)methanone] |  | 5.40 | 
11 | CC1c2ncn(-c3ccccc3)c2CCN1C(=O)c1cccc(C(F)(F)F)c1Cl (stereo not drawn) [Example 12, (2-Chloro-3-(trifluoromethyl)phenyl)(4-methyl-1-phenyl-6,7-dihydro-1H-imidazo[4,5-c]pyridin-5(4H)-yl)methanone] | 8.31 |  | 
12 | CC1c2ncn(-c3cnccn3)c2CCN1C(=O)c1cccc(C(F)(F)F)c1F (stereo not drawn) [Example 14, (2-Fluoro-3-(trifluoromethyl)phenyl)(4-methyl-1-(pyrazin-2-yl)-6,7-dihydro-1H-imidazo[4,5-c]pyridin-5(4H)-yl)methanone] | 7.12 |  | 
13 | O=C(c1cccc(C(F)(F)F)c1Cl)N1CCc2c(ncn2-c2ccccc2)C1CO (stereo not drawn) [Example 30, (5-{[2-Chloro-3-(trifluoromethyl)phenyl]carbonyl}-1-phenyl-4,5,6,7-tetrahydro-1H-imidazo[4,5-c]pyridin-4-yl)methanol] | 5.95 | 5.44 | 
14 | O=C(c1cccc(C(F)(F)F)c1Cl)N1CCc2c(nnn2-c2ncccn2)C1 [Example 65, 5-{[2-Chloro-3-(trifluoromethyl)phenyl]carbonyl}-1-pyrimidin-2-yl-4,5,6,7-tetrahydro-1H-[1,2,3]triazolo[4,5-c]pyridine] | 8.39 |  | 
15 | O=C(c1cccc(C(F)(F)F)c1Cl)N1CCc2c(nnn2-c2cnccn2)C1 [Example 91, 5-{[2-Chloro-3-(trifluoromethyl)phenyl]carbonyl}-1-pyrazin-2-yl-4,5,6,7-tetrahydro-1H-[1,2,3]triazolo[4,5-c]pyridine] |  | 5.60 | 
16 | Cn1nc(-c2ccccc2)c2c1CN(C(=O)c1cccc(Cl)c1Cl)CC2.Cn1nc2c(c1-c1ccccc1)CCN(C(=O)c1cccc(Cl)c1Cl)C2 [Example 101, 6-[(2,3-Dichlorophenyl)carbonyl]-1-methyl-3-phenyl-4,5,6,7-tetrahydro-1H-pyrazolo[3,4-c]pyridine-6-[(2,3-dichlorophenyl)carbonyl]-2-methyl-3-phenyl-4,5,6,7-tetrahydro-2H-pyrazolo[3,4-c]pyridine (1:1)] | 6.89 | 5.46 | pIC50 (human P2X7 [1]; 250 μM BzATP, Calcium-4 dye): 6.89; pKi (human P2X7 [2]; [4]): 7.07; pKi (human P2X7 [2]; [5]): 7.07; pIC50 (rat P2X7; 250 μM BzATP, Calcium-4 dye): 5.46
17 | CC1c2ncn(-c3ccc(F)cn3)c2CCN1C(=O)c1ccc(F)c(Cl)c1Cl (stereo not drawn) [Example 261, (2,3-dichloro-4-fluorophenyl)(1-(5-fluoropyridin-2-yl)-4-methyl-6,7-dihydro-1H-imidazo[4,5-c]pyridin-5(4H)-yl)methanone] |  | 5.58 | 
18 | Cc1c(C(=O)N2CCc3c(ncn3-c3ccc(F)cn3)C2C)cccc1C(F)(F)F (stereo not drawn) [Example 263, (1-(5-fluoropyridin-2-yl)-4-methyl-6,7-dihydro-1H-imidazo[4,5-c]pyridin-5(4H)-yl)(2-methyl-3-(trifluoromethyl)phenyl)methanone] |  | 5.57 | 
19 | Cc1ccnc(-n2nnc3c2CCN(C(=O)c2cccc(C(F)(F)F)c2Cl)C3C)c1 (stereo not drawn) [Example 299, (2-chloro-3-(trifluoromethyl)phenyl)(4-methyl-1-(4-methylpyridin-2-yl)-6,7-dihydro-1H-[1,2,3]triazolo[4,5-c]pyridin-5(4H)-yl)methanone] |  | 7.51 | 
20 | Cc1c(C(=O)N2CCc3c(ncn3-c3ccc(F)cn3)C2)cccc1C(F)(F)F [Example 312, (1-(5-fluoropyridin-2-yl)-6,7-dihydro-1H-imidazo[4,5-c]pyridin-5(4H)-yl)(2-methyl-3-(trifluoromethyl)phenyl)methanone] |  | 5.31 | 
21 | Cc1cc(-n2nnc3c2CCN(C(=O)c2ccc(Cl)c(C(F)(F)F)c2)C3C)ncc1F (stereo not drawn) [Example 364, (4-chloro-3-(trifluoromethyl)phenyl)(1-(5-fluoro-4-methylpyridin-2-yl)-4-methyl-6,7-dihydro-1H-[1,2,3]triazolo[4,5-c]pyridin-5(4H)-yl)methanone] | 5.91 |  | 
22 | Cc1ccnc(-n2nnc3c2CCN(C(=O)c2cccc(OC(F)(F)F)c2)C3C)c1 (stereo not drawn) [Example 375, (4-methyl-1-(4-methylpyridin-2-yl)-6,7-dihydro-1H-[1,2,3]triazolo[4,5-c]pyridin-5(4H)-yl)(3-(trifluoromethoxy)phenyl)methanone] |  | < 5.00 | 
23 | Cc1cccc(-n2nnc3c2CCN(C(=O)c2cccc(C(F)(F)F)c2F)C3C)n1 (stereo not drawn) [Example 385, (2-fluoro-3-(trifluoromethyl)phenyl)(4-methyl-1-(6-methylpyridin-2-yl)-6,7-dihydro-1H-[1,2,3]triazolo[4,5-c]pyridin-5(4H)-yl)methanone] |  |  | pKi (human P2X7 [2]; [4]): 7.00
24 | Cc1ccnc(-n2nnc3c2CCN(C(=O)c2cccc(Cl)c2C)C3C)c1 (stereo not drawn) [Example 388, (3-chloro-2-methylphenyl)(4-methyl-1-(4-methylpyridin-2-yl)-6,7-dihydro-1H-[1,2,3]triazolo[4,5-c]pyridin-5(4H)-yl)methanone] |  |  | pKi (human P2X7 [2]; [4]): 7.12
25 | Cc1cc(-n2nnc3c2CCN(C(=O)c2cccc(C(F)(F)F)c2Cl)C3C)ncn1 (stereo not drawn) [Example 402, (2-chloro-3-(trifluoromethyl)phenyl)(4-methyl-1-(6-methylpyrimidin-4-yl)-6,7-dihydro-1H-[1,2,3]triazolo[4,5-c]pyridin-5(4H)-yl)methanone] |  | 4.83 | 
26 | CC1c2n[nH]c(-c3cnccn3)c2CCN1C(=O)c1cccc(Cl)c1Cl (stereo not drawn) [Example 433, (2,3-dichlorophenyl)(7-methyl-3-(pyrazin-2-yl)-4,5-dihydro-2H-pyrazolo[3,4-c]pyridin-6(7H)-yl)methanone] |  |  | pIC50 (rat P2X7; [7]): 5.59
27 | CC1c2n[nH]c(-c3ccc(F)cc3)c2CCN1C(=O)c1cccc(Cl)c1Cl (stereo not drawn) [Example 435, (2,3-dichlorophenyl)(3-(4-fluorophenyl)-7-methyl-4,5-dihydro-2H-pyrazolo[3,4-c]pyridin-6(7H)-yl)methanone] |  |  | pIC50 (rat P2X7; [7]): 5.56
28 | CC1c2n[nH]c(-c3cnccn3)c2CCN1C(=O)c1cccc(C(F)(F)F)c1Cl (stereo not drawn) [Example 438, (2-chloro-3-(trifluoromethyl)phenyl)(7-methyl-3-(pyrazin-2-yl)-4,5-dihydro-2H-pyrazolo[3,4-c]pyridin-6(7H)-yl)methanone] |  |  | pIC50 (human P2X7 [1]; Ca2+ flux, 250 μM BzATP, human P2X7 1321N1 cells): 7.86

pIC50, pKi: −log10 of the molar value.
